For this test, the target named is Voltage-gated inwardly rectifying potassium channel KCNH2 (Homo sapiens, UniProt Q12809).

Chains of the proteins cited; added tags and fusions are not shown. Lines headed by an entry give the natural chain unless they say otherwise; changes in a name come on top.
UniProt Q12809: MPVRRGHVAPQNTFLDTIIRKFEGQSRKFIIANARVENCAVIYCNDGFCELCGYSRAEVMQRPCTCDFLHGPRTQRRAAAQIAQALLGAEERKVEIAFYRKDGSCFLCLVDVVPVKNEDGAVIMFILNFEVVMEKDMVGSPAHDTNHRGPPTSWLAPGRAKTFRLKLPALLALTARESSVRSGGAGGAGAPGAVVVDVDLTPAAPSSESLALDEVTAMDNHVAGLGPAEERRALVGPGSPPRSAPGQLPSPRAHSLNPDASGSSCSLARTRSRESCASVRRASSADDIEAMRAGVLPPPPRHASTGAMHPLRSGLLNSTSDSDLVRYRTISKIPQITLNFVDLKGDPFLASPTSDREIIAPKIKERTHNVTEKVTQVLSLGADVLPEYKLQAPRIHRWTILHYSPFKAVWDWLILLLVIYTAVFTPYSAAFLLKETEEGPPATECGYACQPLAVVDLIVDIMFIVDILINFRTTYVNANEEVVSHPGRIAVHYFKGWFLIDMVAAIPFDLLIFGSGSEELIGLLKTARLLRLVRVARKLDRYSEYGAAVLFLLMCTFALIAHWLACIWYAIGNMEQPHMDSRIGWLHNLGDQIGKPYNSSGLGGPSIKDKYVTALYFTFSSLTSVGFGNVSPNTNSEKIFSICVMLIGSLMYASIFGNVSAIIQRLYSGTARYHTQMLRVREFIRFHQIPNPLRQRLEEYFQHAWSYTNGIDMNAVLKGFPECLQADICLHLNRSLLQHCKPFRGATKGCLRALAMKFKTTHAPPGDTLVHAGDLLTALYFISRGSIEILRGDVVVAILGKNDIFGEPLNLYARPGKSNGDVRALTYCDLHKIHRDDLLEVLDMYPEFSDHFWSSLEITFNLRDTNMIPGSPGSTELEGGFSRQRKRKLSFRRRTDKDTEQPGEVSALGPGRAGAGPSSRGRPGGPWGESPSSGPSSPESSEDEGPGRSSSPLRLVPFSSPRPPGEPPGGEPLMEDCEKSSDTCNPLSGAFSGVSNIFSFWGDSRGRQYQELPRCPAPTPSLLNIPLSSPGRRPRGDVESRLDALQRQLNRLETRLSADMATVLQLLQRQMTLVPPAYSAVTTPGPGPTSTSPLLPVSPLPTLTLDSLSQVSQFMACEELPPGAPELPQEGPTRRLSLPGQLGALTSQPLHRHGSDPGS

Counter-ions that a name gives are not always drawn.

The values that follow come from ChEMBL document CHEMBL1136167, “Prediction of hERG potassium channel affinity by traditional and hologram qSAR methods” (Bioorg Med Chem Lett, 2003).

`Cc1nccn1CC1CCc2c(c3ccccc3n2C)C1=O` (configuration not stated) [ONDANSETRON] had an IC50 of 813 nM.

`O=C1Cc2cc(CCN3CCN(c4nsc5ccccc45)CC3)c(Cl)cc2N1` [ZIPRASIDONE HYDROCHLORIDE] showed an IC50 of 120 nM.

As a reminder, the IC50 is the concentration needed to halve the response being measured. Higher therefore signals lower potency.
